These results are taken from US6322789A, “HLA-restricted hepatitis B virus CTL epitopes” (Epimmune, Inc., priority 1995, dated 2001).

In assay [1] the test system is Jurkat A2.1/K^b target cells. As to the kind of experiment: CTL induction from splenocytes of mice primed subcutaneously with purified HBV in IFA (Example II). Type of assay: cell-based, A2.1/K^b transgenic mice (effector cells).
Assay [2] has as its system Jurkat A2/K^b target cells. The assay can be described thus: In vivo HBc 18-27-specific CTL priming by CTL and T helper epitopes (Example IV). More on the design: species or system HLA-A2.1/K^b transgenic mice. The note with it: 100 μg subcutaneously, transgenic mice. The protocol:
Animals were primed subcutaneously with 100 μg of 875.23 (T helper epitope) in Complete Freund's Adjuvant (CFA) followed 9 days later (subcutaneously) with […]. Splenocytes were removed 3 weeks later, cultured for 6 days in the presence of LPS-blasts that had been incubated with the CTL epitope (875.15), 100 μg for 2 hrs before being washed and added to the culture as a source of antigen presenting cells. The presence of HBc 18-27 (875.15)-specific CTL was determined using a standard 6 hr […] release assay with Jurkat A2.1/K^b cells as targets.
This example describes experiments which define the relative in vivo HBV-specific CTL priming efficiency of peptides expressing HBV CTL epitopes alone, CTL epitopes mixed with peptides containing T helper epitopes or CTL epitopes physically linked to T helper epitopes.
Nine days later each of the following peptides were injected subcutaneously into two unprimed and two helper-primed mice, 100 μg/mouse in incomplete Freund's adjuvant (IFA).
Three weeks after priming with the CTL epitope, splenocytes were in vitro restimulated with LPS blasts coated with HBc 18-27 (coating was achieved by incubating 30×10^6 LPS blasts with 100 μg of HBc18-27 in one ml of medium; after 1-2 hr at 37° C., the cells were washed). […]

Turning to “Phe-Leu-Pro-Ser-Asp-Phe-Phe-Pro-Ser-Val-OH (FLPSDFFPSV) [Peptide 875.15]”, the “recognition of truncation peptides by CTL raised against the larger peptide” value in assay [1] is on record as “recognized by the CTL raised against the larger epitopes”. In addition, the “ability to induce in vitro CTL from splenocytes of HBV-primed mice” value in assay [1] (FIGS. 3 and 4) was “clearly able to induce in vitro CTL”. The “HBc18-27-specific CTL response” value in assay [2] is listed as “no HBc 18-27-specific CTL response was detected”; in assay [2] (listed as CTL peptide), “did not induce HBc-specific CTL”.
